Test results reported in patent publication US7253165B2, “Benzisoxazolyl-, pyridoisoxazolyl-and benzthienyl-phenoxy derivatives useful as D4 antagonists” (Aventis Pharmaceuticals Inc., priority 1999, dated 2007).

Sequences of proteins named here, by UniProt entry; tags and fusion partners are left off. A line that says so, or that is headed by a name, gives the form on record, which may keep a tag or linker.
UniProt P21917, with tags, fused parts or gaps DEL265-296: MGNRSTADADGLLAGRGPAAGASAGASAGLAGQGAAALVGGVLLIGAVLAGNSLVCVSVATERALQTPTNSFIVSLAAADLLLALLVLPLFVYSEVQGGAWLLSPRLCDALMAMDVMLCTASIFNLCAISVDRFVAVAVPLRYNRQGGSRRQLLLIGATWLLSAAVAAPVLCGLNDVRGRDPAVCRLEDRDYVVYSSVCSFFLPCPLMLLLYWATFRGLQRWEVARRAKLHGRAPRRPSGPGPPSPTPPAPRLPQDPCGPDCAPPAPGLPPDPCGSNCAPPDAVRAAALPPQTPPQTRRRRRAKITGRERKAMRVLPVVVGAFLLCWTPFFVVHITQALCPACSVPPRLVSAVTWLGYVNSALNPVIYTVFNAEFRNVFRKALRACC

Biological target: human D4 receptor (D4.2 sub-type) (Homo sapiens, UniProt P21917, DEL265-296)
Assay: D4 receptor binding assay, displacement of 3H-spiperone
Conditions: read-out: D4 RBA Ki, 3H-spiperone 0.25 nM, membranes of HEK cells transfected with human D4.2, * = HCl salt
Experimental: D4 receptor-binding affinities of the compounds were evaluated according to their ability to reduce binding of ^3H-spiperone as compared to the reference compound clozapine. The potency of the test compound to reduce ^3H-spiperone binding directly correlated to its binding affinity for the receptor.
[…] (human embryonic kidney) cells stably transfected with human D4 receptor (D4.2 sub-type) were grown in NUNC cell factories for 5 days (75% confluency) without a media change and removed with versene (approximately 19 mg of cells per cell factory tray). The cells were then centrifuged in a Sorval centrifuge for 10 min, 5000 rpm (GS3 rotor) and the pellets quickly frozen in liquid nitrogen and stored at −80° C. until used in binding assay. When used in the assay, cells were thawed on ice for 20 min and then 10 mL of incubation buffer (50 mM Tris, 1 mM EDTA, 4 mM MgCl2, 5 mM KCl, 1.5 mM CaCl2, 120 mM NaCl, pH 7.4) was added. The cells were then vortexed to resuspend pellet and homogenized with a Kinematica, CH-6010 Kriens-LU, homogenizer for 15 seconds at setting 7. Concentration of receptor protein was determined using the Pierce BCA assay.
The incubation was started by the addition of 100 μl (50 μg protein) membrane homogenate to a solution of 300 μl incubation buffer and 100 μl (0.25 nM final conc.) ^3H-spiperone (90 Ci/mmol, Amersham, diluted in borosilicate glass vial) in 96-well polypropylene plates (1 ML per well). […] The plates were sealed and counted in the Packard Top Count (3 minutes per well).
The incubation was started by the addition of 100 μl (50 μg protein) membrane homogenate to a solution of 200 μl incubation buffer, 100 μl ^3H-spiperone (90 Ci/mmol, Amersham, diluted in borosilicate glass vial to 0.25 nM final conc.) and 100 μl (30 μM final conc.) of fresh dopamine (Research Biochemicals Inc., light protected and dissolved in incubation buffer) in 96-well polypropylene plates (1 mL per well). […] The filters were washed and counted using the same procedure as in the total binding assay described above to give the non-specific binding value (NSB). […]

Row | Compound | Ki (tested form: HCl) [nM] | Ki [nM]
1 | O[C@H](CNCc1ccccc1)COc1ccc(-c2noc3cc(F)ccc23)cc1 [Example 75, (R)-1-benzylamino-3-[4-(6-fluoro-benzo[d]isoxazol-3-yl)-phenoxy]-propan-2-ol] | 7.7 | –
2 | O[C@@H](COc1cccc(-c2noc3ncccc23)c1)CN1CCC(Oc2cccc(Cl)c2)CC1 [Example 102, (R)-1-[4-(3-chloro-phenoxy)-piperidin-1-yl]-3-(3-isoxazolo[5,4-b]pyridin-3-yl-phenoxy)-propan-2-ol] | – | 91
3 | O[C@H](CNCc1c(F)cccc1F)COc1ccc(-c2noc3cc(F)ccc23)cc1 [Example 114, (R)-1-(2,6-difluoro-benzylamino)-3-[4-(6-fluoro-benzo[d]isoxazol-3-yl)-phenoxy]-propan-2-ol] | – | 6.8

Read-outs that look alike come from different tables or passages of the source.
